From patent US9890152B2 (Genentech, Inc., priority 2012, dated 2018) come the findings set out here.

Amino acid sequences for entries named in this document (tags omitted). Residues count along the entry.
UniProt P00533, 25-1210 T790M/L858R limits assumed: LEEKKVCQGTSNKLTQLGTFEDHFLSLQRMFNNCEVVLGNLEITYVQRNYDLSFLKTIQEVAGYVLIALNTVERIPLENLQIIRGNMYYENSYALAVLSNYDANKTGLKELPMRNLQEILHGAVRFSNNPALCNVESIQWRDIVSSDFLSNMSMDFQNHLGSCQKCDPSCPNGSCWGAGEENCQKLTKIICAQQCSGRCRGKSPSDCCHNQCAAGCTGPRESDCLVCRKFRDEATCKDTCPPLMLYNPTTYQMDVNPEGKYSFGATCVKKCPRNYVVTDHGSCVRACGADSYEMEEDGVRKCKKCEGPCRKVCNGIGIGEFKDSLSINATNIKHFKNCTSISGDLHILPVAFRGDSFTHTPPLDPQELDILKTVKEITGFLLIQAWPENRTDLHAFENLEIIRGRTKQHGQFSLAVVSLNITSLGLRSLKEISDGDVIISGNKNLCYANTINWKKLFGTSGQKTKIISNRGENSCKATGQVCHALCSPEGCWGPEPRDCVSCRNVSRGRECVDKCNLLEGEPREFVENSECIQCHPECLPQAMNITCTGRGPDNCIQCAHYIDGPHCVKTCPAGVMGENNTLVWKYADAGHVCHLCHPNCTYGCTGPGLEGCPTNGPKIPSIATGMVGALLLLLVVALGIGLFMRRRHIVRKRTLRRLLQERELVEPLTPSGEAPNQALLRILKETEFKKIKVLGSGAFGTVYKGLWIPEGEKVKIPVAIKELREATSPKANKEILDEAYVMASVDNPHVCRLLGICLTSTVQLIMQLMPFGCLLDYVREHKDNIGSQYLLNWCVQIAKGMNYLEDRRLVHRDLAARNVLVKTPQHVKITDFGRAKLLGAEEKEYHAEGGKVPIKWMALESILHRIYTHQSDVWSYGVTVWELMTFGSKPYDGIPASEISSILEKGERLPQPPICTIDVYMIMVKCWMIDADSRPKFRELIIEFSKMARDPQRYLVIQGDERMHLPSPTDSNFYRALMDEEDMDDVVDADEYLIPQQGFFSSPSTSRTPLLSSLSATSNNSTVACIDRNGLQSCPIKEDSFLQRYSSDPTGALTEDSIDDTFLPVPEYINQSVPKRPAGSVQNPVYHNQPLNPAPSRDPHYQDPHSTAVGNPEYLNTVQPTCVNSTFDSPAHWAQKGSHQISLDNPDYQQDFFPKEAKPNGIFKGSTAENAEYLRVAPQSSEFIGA

For this experiment, the target named is EGFR T790M L858R (Homo sapiens, UniProt P00533, L858R/T790M). The experiment in a line: biochemical. The note with it: EGFR(T790M/L858R) Ki (μM), 5 μM ATP, 30 min, room temperature; apparent Ki (Morrison) converted by Cheng-Prusoff, Km of ATP 1.3 μM.

On to `Cc1nc2cnc(Nc3ccnc(N4CCC(F)CC4)n3)cc2n1C(C)C` [Example 591, [2-(4-Fluoropiperidin-1-yl)pyrimidin-4-yl]-(1-isopropyl-2-methyl-1H-imidazo[4,5-c]pyridin-6-yl)amine], for which the Ki was found to be 0.027 µM. With `Cc1nc2cnc(Nc3ccnc(N4CC[C@H](F)C4)n3)cc2n1C(C)C` [Example 592, [2-((S)-3-Fluoropyrrolidin-1-yl)pyrimidin-4-yl]-(1-isopropyl-2-methyl-1H-imidazo[4,5-c]pyridin-6-yl)amine], the Ki is 0.0385 µM. With `Cc1nc2cnc(Nc3ccnc(N4CC[C@@H](F)C4)n3)cc2n1C(C)C` [Example 593, [2-((R)-3-Fluoropyrrolidin-1-yl)pyrimidin-4-yl]-(1-isopropyl-2-methyl-1H-imidazo[4,5-c]pyridin-6-yl)amine] the figure was 0.0596 µM. With `CC(C)n1c(CO)nc2cnc(Nc3ccnc(-c4cnc(N(C)C)s4)n3)cc21` [Example 594, {6-[2-(2-Dimethylaminothiazol-5-yl)pyrimidin-4-ylamino]-1-isopropyl-1H-imidazo[4,5-c]pyridin-2-yl}methanol] the figure was 0.00256 µM; with `CCc1ncc(-c2nccc(Nc3cc4c(cn3)nc(C)n4C(C)C)n2)s1` [Example 595, [2-(2-Ethylthiazol-5-yl)pyrimidin-4-yl]-(1-isopropyl-2-methyl-1H-imidazo[4,5-c]pyridin-6-yl)amine], 0.00556 µM. With `Cc1nc2cnc(Nc3ccnc(-n4ccnc4)n3)cc2n1C(C)C` [Example 599, (2-Imidazol-1-ylpyrimidin-4-yl)-(1-isopropyl-2-methyl-1H-imidazo[4,5-c]pyridin-6-yl)amine] the figure was 0.328 µM. With `Cc1nc2cnc(Nc3ccnc(N4CC[C@H](O)C[C@@H]4C)n3)cc2n1C(C)C` [Example 600], the Ki worked out at 0.0602 µM. The value for `Cc1nc2cnc(Nc3ccnc(N4CC[C@@H](O)C[C@H]4C)n3)cc2n1C(C)C` [Example 601] was 0.0296 µM. Regarding `Cc1nc2cnc(Nc3ccnc(-n4ccc(N)n4)n3)cc2n1C(C)C` [Example 602], the Ki is 1.1 µM.

For the compound `Cc1nc2cnc(Nc3ccnc(Nc4cc[nH]n4)n3)cc2n1C(C)C` [Example 603], the Ki turned out to be 0.465 µM. The value for `Cc1nc2cnc(Nc3ccnc(N4CCOC[C@H]4C)n3)cc2n1C(C)C` [Example 604] was 0.0745 µM; that for `Cc1nc2cnc(Nc3ccnc(N4CCOC[C@@H]4C)n3)cc2n1C(C)C` [Example 605] was 0.0699 µM. The value for `Cc1cn(-c2nccc(Nc3cc4c(cn3)nc(C)n4C(C)C)n2)c(C)n1` [Example 606] was 0.235 µM. The value for `C[C@H](n1c([C@@H](C)O)nc2cnc(Nc3ccnc(OCC(C)(C)S(C)(=O)=O)n3)cc21)C(F)(F)F` [Example 609, (R)-1-[6-[2-(2-Methanesulfonyl-2-methylpropoxy)pyrimidin-4-ylamino]-1-((S)-2,2,2-trifluoro-1-methylethyl)-1H-imidazo[4,5-c]pyridin-2-yl]ethanol] was 0.00417 µM. `Cc1nc2cnc(Nc3ccnc(NCC(F)(F)C(N)=O)n3)cc2n1C(C)C` [Example 610, 2,2-Difluoro-3-[4-(1-isopropyl-2-methyl-1H-imidazo[4,5-c]pyridin-6-ylamino)pyrimidin-2-ylamino]propionamide]: the Ki was 0.0266 µM. The value for `CNc1nc(C)c(-c2nccc(Nc3cc4c(cn3)nc(C)n4C(C)C)n2)s1` [Example 611, (1-Isopropyl-2-methyl-1H-imidazo[4,5-c]pyridin-6-yl)-[2-(4-methyl-2-methylaminothiazol-5-yl)pyrimidin-4-yl]amine] was 0.000792 µM; that for `CNc1nc(C)c(-c2nccc(Nc3cc4c(cn3)nc(CO)n4C(C)C)n2)s1` [Example 612, {1-Isopropyl-6-[2-(4-methyl-2-methylaminothiazol-5-yl)pyrimidin-4-ylamino]-1H-imidazo[4,5-c]pyridin-2-yl}methanol] was 0.000779 µM. The value for `CNc1ncc(-c2nccc(Nc3cc4c(cn3)nc(CO)n4C(C)C)n2)n1C` [Example 613, {1-Isopropyl-6-[2-(3-methyl-2-methylamino-3H-imidazol-4-yl)pyrimidin-4-ylamino]-1H-imidazo[4,5-c]pyridin-2-yl}methanol] was 0.218 µM; that for `Cc1nc2cnc(Nc3ccnc(-c4cnc(N)s4)n3)cc2n1C(C)C` [Example 614, [2-(2-Aminothiazol-5-yl)pyrimidin-4-yl]-(1-isopropyl-2-methyl-1H-imidazo[4,5-c]pyridin-6-yl)amine] was 0.00327 µM. The value for `CC(C)n1c(CO)nc2cnc(Nc3ccnc(-c4cnc(N)s4)n3)cc21` [Example 615, {6-[2-(2-Aminothiazol-5-yl)pyrimidin-4-ylamino]-1-isopropyl-1H-imidazo[4,5-c]pyridin-2-yl}methanol] was 0.00365 µM; that for `CC(C)n1c(CO)nc2cnc(Nc3ccnc(C4=CCC(O)CC4)n3)cc21` (stereo not drawn) [Example 624, 4-(4-((2-(hydroxymethyl)-1-isopropyl-1H-imidazo[4,5-c]pyridin-6-yl)amino)pyrimidin-2-yl)cyclohex-3-enol] was 0.111 µM. Consider `Cc1nc2cnc(Nc3ccnc(-c4cn(CC5CC5)nc4Cl)n3)cc2n1C(C)C` [Example 625, N-(2-(3-Chloro-1-(cyclopropylmethyl)-1H-pyrazol-4-yl)pyrimidin-4-yl)-1-isopropyl-2-methyl-1H-imidazo[4,5-c]pyridin-6-amine], for which the Ki turned out to be 0.0251 µM.

Take `CC(n1cc(C(=O)NC2CCOCC2)c2cnc(Nc3ccnc(-c4cnn(S(=O)(=O)C5CC5)c4)n3)cc21)C(F)(F)F` (stereo not drawn) [Example 635, 6-(2-(1-(Cyclopropylsulfonyl)-1H-pyrazol-4-yl)pyrimidin-4-ylamino)-N-(tetrahydro-2H-pyran-4-yl)-1-(1,1,1-trifluoropropan-2-yl)-1H-pyrrolo[3,2-c]pyridine-3-carboxamide]: the Ki was found to be 0.00249 µM.

For the compound `CC(n1cc(C(=O)NC2CCOCC2)c2cnc(Nc3ccnc(N4CCC(C)(O)CC4)n3)cc21)C(F)(F)F` (stereo not drawn) [Example 636, 6-(2-(4-Hydroxy-4-methylpiperidin-1-yl)pyrimidin-4-ylamino)-N-(tetrahydro-2H-pyran-4-yl)-1-(1,1,1-trifluoropropan-2-yl)-1H-pyrrolo[3,2-c]pyridine-3-carboxamide], the Ki stood at 0.00736 µM. The value for `Cc1nc2cnc(Nc3ccnc(-c4ccc(S(C)(=O)=O)cc4)n3)cc2n1C(C)C` [Example 647] was 0.158 µM; that for `Cc1nc2cnc(Nc3ccnc(N4CCC5(CC4)OCCCO5)n3)cc2n1C(C)C` [Example 648] was 0.0245 µM; that for `CC(C)n1c(CO)nc2cnc(Nc3ccnc(N4C[C@@H](F)[C@@H](O)C(C)(C)C4)n3)cc21` [Example 650] was 0.0153 µM. Regarding `Cc1nc2cnc(Nc3ccnc(N4CCc5cn[nH]c5C4)n3)cc2n1C(C)C` [Example 651], the Ki stood at 0.0114 µM. The value for `Cc1nc2cnc(Nc3ccnc(NCC4CCS(=O)(=O)C4)n3)cc2n1C(C)C` (stereo not drawn) [Example 652] was 0.864 µM. As to `Cc1nc2cnc(Nc3ccnc(N4CCC5(OCCO5)C(F)C4)n3)cc2n1C(C)C` (stereo not drawn) [Example 653], the Ki was determined as 0.00461 µM.

`CC(C)n1c(CO)nc2cnc(Nc3ccnc(N4CCC5(OCCO5)C(F)C4)n3)cc21` (stereo not drawn) [Example 654]: the Ki turned out to be 0.00524 µM. With `CO[C@H]1CCN(c2nccc(Nc3cc4c(cn3)nc(CO)n4C(C)C)n2)C[C@H]1F` [Example 655] the figure was 0.0047 µM; with `Cc1nc2cnc(Nc3ccnc(OCC(C)(C)S(C)(=O)=O)n3)cc2n1C(C)C` [Example 656], 0.0507 µM; with `CO[C@@H]1CCN(c2nccc(Nc3cc4c(cn3)nc(CO)n4[C@@H](C)C(F)(F)F)n2)C[C@@H]1F` [Example 657], 0.00164 µM.

As to `CC(C)n1c([C@@H](C)O)nc2cnc(Nc3ccnc(N4CC[C@@H](O)[C@@H](F)C4)n3)cc21` [Example 658], the Ki came out at 0.00784 µM. `CO[C@@H]1CCN(c2nccc(Nc3cc4c(cn3)nc([C@@H](C)O)n4C(C)C)n2)C[C@@H]1F` [Example 659]: the Ki is 0.00354 µM. In the case of `CC(C)n1c(CO)nc2cnc(Nc3ccnc(OCC(C)(C)S(C)(=O)=O)n3)cc21` [Example 660], the Ki was determined as 0.0454 µM.

Consider `CC(C)n1c(CO)nc2cnc(Nc3ccnc(N4CCC(S(C)(=O)=O)CC4)n3)cc21` [Example 661], for which the Ki amounted to 0.0897 µM. The value for `C[C@H](n1c([C@@H](C)O)nc2cnc(Nc3ccnc(N4CCC(S(C)(=O)=O)CC4)n3)cc21)C(F)(F)F` [Example 662] was 0.00817 µM; that for `C[C@H](n1c([C@@H](C)O)nc2cnc(Nc3ccnc(NCC(C)(C)S(C)(=O)=O)n3)cc21)C(F)(F)F` [Example 663] was 0.0122 µM; that for `CC(C)n1cc(C(=O)NC2CCOCC2)c2cnc(Nc3ccnc(NCC(C)(C)S(C)(=O)=O)n3)cc21` [Example 664] was 0.00617 µM. The value for `COC1(CO)CCN(c2nccc(Nc3cc4c(cn3)nc([C@@H](C)O)n4[C@@H](C)C(F)(F)F)n2)CC1` [Example 665] was 0.00331 µM.

`C[C@H](n1c(CO)nc2cnc(Nc3ccnc(N4CC[C@@H](O)[C@@H](F)C4)n3)cc21)C(F)(F)F` [Example 666]: the Ki came to 0.00318 µM. The value for `C[C@H](n1c(CO)nc2cnc(Nc3ccnc(N4CC[C@H](O)[C@H](F)C4)n3)cc21)C(F)(F)F` [Example 667] was 0.00336 µM; that for `CC(C)n1c(CO)nc2cnc(Nc3ccnc(N4CCCCC4CCO)n3)cc21` (stereo not drawn) [Example 668] was 0.345 µM.

With `CC(C)n1c(CO)nc2cnc(Nc3ccnc(N4CCC(O)(C(F)(F)F)CC4)n3)cc21` [Example 669], the Ki came to 0.149 µM. The value for `CC(C)n1c(CO)nc2cnc(Nc3ccnc(N4CCCCC4CO)n3)cc21` (stereo not drawn) [Example 670] was 0.193 µM. As for `CCc1ncc(-c2nccc(Nc3cc4c(cn3)nc(CO)n4C(C)C)n2)s1` [Example 671], the Ki amounted to 0.00622 µM. The value for `Cc1nc2cnc(Nc3ccnc(N4CC[C@](C)(O)[C@H](F)C4)n3)cc2n1C(C)C` [Example 672] was 0.0254 µM; that for `CO[C@@]1(C)CCN(c2nccc(Nc3cc4c(cn3)nc(C)n4C(C)C)n2)C[C@H]1F` [Example 673] was 0.00554 µM; that for `Cc1nc2cnc(Nc3ccnc(N4CC[C@@](C)(O)[C@H](F)C4)n3)cc2n1C(C)C` [Example 674] was 0.0254 µM.
